Tested on: Ceriodaphnia dubia
Assay: 7-day chronic ecotoxicity test, standard EPA protocol
Conditions: for Effect on Daphnia reproduction, in words: 7-day test, 0.5 ppm additive; for Total reproductive output (number of neonates) in surviving Daphnia / Number of surviving Daphnia: 0.5 ppm additive in 10 ppm PAG; for Number of surviving Daphnia: started with 10 individuals

zinc dialkyldithiophosphate
Effect on Daphnia reproduction, in words: no reproduction was observed
Total reproductive output (number of neonates) in surviving Daphnia (Day 1): 0
Number of surviving Daphnia (Day 1): 8
Total reproductive output (number of neonates) in surviving Daphnia (Day 2): 0
Number of surviving Daphnia (Day 2): 0
Total reproductive output (number of neonates) in surviving Daphnia (Day 3): 0
Number of surviving Daphnia (Day 3): 0
Total reproductive output (number of neonates) in surviving Daphnia (Day 4): 0
Number of surviving Daphnia (Day 4): 0
Total reproductive output (number of neonates) in surviving Daphnia (Day 5): 0
Number of surviving Daphnia (Day 5): 0
Total reproductive output (number of neonates) in surviving Daphnia (Day 6): 0
Number of surviving Daphnia (Day 6): 0
Total reproductive output (number of neonates) in surviving Daphnia (Day 7): 0
Number of surviving Daphnia (Day 7): 0
Total reproductive output (number of neonates) in surviving Daphnia (Total over 7 days): 0
Mortality of Daphnia (within 24 hours, 0.5 ppm): 100%

Tetraoctylammonium octadecanoate
Effect on Daphnia reproduction, in words: reduced or halted reproduction

— patent US11760766B2, “Ionic liquids containing quaternary ammonium and phosphonium cations, and their use as environmentally friendly lubricant additives” (UT-Battelle, LLC, priority 2020, dated 2023)
